Chains of the proteins cited; added tags and fusions are not shown.
UniProt Q96SW2, whole entry: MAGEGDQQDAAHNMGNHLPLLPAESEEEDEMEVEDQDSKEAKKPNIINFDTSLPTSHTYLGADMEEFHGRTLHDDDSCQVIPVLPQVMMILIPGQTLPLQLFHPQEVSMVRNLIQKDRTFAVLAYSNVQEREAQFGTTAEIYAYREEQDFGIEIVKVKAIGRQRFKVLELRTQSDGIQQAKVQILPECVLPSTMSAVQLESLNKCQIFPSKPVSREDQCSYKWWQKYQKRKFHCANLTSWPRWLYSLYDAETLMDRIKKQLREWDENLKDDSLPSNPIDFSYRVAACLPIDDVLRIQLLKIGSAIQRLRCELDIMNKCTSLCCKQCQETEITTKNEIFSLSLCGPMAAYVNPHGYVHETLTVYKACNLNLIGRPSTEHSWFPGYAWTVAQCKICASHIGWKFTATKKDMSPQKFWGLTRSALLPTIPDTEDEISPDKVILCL
UniProt Q9UKT9, whole entry: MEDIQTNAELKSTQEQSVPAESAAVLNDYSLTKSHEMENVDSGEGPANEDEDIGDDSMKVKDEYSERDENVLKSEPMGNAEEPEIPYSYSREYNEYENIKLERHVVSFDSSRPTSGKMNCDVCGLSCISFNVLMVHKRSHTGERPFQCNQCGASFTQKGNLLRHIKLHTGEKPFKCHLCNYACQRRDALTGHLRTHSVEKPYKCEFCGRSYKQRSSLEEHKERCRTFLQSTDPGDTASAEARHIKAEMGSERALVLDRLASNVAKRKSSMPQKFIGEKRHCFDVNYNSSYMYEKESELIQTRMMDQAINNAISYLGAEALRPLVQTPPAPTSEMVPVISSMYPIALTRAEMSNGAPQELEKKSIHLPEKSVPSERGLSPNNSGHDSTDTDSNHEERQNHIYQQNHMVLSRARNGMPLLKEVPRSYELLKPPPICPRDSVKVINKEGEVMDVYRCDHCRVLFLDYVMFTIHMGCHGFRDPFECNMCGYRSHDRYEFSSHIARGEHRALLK
UniProt P30291, whole entry: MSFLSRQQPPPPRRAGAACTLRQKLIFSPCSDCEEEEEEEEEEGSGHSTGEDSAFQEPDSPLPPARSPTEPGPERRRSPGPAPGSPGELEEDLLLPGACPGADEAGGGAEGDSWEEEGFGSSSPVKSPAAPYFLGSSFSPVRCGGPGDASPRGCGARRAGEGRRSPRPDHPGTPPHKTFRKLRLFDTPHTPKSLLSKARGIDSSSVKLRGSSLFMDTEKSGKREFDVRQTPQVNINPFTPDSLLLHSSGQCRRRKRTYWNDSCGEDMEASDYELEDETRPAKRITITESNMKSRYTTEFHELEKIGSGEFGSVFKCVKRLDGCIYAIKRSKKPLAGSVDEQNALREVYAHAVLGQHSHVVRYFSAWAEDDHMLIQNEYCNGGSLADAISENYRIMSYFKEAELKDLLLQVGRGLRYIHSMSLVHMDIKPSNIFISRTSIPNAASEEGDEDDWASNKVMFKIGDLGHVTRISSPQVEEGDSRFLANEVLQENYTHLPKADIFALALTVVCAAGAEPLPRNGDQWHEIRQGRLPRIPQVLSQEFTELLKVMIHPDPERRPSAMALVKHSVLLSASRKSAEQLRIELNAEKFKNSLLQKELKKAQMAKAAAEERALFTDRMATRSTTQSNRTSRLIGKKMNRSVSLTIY
UniProt Q9UKS7, whole entry: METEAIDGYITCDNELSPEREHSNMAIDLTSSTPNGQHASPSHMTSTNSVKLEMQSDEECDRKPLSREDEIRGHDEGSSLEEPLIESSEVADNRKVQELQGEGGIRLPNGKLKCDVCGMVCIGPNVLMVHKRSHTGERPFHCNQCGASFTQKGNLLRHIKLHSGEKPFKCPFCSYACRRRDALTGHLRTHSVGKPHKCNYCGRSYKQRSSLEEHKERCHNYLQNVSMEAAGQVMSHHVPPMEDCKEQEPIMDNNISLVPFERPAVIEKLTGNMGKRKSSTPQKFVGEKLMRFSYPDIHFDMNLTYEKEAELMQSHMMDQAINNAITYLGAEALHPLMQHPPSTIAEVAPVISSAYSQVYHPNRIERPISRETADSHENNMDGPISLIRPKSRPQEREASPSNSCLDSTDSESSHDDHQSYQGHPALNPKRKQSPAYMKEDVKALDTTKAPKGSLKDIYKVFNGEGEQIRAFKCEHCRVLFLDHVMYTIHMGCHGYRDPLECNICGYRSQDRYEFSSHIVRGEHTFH
UniProt P15170, whole entry: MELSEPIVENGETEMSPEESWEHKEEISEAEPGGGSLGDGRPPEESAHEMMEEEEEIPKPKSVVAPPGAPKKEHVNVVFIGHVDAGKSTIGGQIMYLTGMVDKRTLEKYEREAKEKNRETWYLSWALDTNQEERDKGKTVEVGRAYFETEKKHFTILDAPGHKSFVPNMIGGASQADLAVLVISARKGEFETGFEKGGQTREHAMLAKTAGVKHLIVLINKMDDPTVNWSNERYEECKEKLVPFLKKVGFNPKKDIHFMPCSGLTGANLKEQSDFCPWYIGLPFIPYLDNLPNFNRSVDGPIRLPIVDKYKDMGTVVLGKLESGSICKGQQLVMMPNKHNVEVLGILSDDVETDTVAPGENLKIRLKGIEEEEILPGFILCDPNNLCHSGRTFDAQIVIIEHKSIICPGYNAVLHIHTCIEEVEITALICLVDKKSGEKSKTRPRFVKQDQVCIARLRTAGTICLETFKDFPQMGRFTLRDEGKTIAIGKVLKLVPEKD
UniProt Q13422, whole entry: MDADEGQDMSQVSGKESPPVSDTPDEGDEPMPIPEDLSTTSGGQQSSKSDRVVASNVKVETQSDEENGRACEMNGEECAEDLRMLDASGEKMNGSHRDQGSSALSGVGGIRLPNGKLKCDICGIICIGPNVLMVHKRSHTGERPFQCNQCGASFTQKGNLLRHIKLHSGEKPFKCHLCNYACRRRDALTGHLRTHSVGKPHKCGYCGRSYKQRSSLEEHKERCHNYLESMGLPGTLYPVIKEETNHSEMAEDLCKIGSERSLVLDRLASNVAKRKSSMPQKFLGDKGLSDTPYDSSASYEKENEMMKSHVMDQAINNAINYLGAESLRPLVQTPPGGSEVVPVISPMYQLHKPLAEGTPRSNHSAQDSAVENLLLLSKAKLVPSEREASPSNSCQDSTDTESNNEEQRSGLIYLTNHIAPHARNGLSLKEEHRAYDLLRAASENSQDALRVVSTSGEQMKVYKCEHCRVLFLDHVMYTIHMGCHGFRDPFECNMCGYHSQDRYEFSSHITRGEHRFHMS
UniProt P48729, whole entry: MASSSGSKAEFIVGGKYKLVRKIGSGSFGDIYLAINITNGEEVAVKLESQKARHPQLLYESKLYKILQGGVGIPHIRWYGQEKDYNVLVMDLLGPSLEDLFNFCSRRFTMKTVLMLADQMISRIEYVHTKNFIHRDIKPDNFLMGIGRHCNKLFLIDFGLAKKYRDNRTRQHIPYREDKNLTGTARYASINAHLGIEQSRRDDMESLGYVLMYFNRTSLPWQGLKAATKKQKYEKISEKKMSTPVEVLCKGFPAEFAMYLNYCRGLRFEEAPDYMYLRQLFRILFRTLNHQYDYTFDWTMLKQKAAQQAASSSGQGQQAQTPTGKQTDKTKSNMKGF
UniProt Q16531, whole entry partner: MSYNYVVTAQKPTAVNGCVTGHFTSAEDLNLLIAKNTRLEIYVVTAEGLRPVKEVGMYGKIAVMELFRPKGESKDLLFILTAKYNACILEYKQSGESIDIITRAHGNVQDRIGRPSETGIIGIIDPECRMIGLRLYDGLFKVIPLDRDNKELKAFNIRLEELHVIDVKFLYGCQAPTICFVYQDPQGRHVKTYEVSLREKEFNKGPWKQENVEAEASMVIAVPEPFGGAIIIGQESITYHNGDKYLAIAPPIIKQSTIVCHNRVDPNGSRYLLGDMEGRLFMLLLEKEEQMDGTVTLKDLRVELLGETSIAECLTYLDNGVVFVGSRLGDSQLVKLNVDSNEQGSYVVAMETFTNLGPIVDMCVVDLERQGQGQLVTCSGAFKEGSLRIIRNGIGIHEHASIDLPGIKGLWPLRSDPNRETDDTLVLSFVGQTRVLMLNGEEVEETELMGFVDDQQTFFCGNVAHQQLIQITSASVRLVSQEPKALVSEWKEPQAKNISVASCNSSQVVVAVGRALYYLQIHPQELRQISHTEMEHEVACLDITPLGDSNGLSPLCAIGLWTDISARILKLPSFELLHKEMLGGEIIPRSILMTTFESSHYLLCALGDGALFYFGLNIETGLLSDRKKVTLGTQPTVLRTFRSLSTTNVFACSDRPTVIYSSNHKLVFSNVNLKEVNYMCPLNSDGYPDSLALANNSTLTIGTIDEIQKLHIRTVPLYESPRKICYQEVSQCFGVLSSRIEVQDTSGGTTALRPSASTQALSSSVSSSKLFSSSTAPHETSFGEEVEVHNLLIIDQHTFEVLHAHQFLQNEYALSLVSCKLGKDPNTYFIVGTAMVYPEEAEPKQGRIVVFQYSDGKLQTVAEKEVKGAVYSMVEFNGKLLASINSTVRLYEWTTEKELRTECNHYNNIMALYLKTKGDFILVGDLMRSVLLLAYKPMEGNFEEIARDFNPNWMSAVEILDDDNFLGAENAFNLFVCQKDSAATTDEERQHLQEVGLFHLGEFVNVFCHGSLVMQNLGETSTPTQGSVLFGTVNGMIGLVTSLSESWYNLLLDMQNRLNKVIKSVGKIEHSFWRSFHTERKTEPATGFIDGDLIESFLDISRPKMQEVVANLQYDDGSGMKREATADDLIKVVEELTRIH

According to patent publication EP4834897A1, “COMPOUNDS WITH TWO AZAHETEROCYCLES SUBSTITUTED ISOINDOLINONE SKELETON AND USES THEREOF” (dated 2026):

Legend:
GM-CSF = assay: Inflammatory cytokine release from PBMCs induced by PMA + Ionomycin (flow cytometry CBA); conditions: 24 h
IL-5 = assay: as above; conditions: 24 h
IKZF3 = IKZF3 (Homo sapiens, UniProt Q96SW2+Q9UKT9); assay: Western blot assay of substrate protein degradation in hPBMCs; conditions: 24 hours treatment, compounds at 50 nM and 500 nM (concentration behind the class not stated)
WEE1 = WEE1 (Homo sapiens, UniProt P30291+Q96SW2); assay: as above; conditions: 24 hours treatment, compounds at 50 nM and 500 nM (concentration behind the class not stated)
IKZF2 = IKZF2 (Homo sapiens, UniProt Q96SW2+Q9UKS7); assay: as above; conditions: 24 hours treatment, compounds at 50 nM and 500 nM (concentration behind the class not stated)
GSPT1 = GSPT1 (Homo sapiens, UniProt P15170+Q96SW2); assay: as above; conditions: 24 hours treatment, compounds at 50 nM and 500 nM (concentration behind the class not stated)
IKZF1 = IKZF1 (Homo sapiens, UniProt Q13422+Q96SW2); assay: as above; conditions: 24 hours treatment, compounds at 50 nM and 500 nM (concentration behind the class not stated)
CK1α = CK1α (Homo sapiens, UniProt P48729+Q96SW2); assay: as above; conditions: 24 hours treatment, compounds at 50 nM and 500 nM (concentration behind the class not stated)
CRBN = CRBN (Homo sapiens, UniProt Q96SW2); assay: CRBN binding affinity by HTRF (CEREBLON BINDING kit); conditions: for IC50: read-out: HTRF IC50, human Cereblon WT GST-tagged protein, 3 hours at room temperature
IL-1α = assay: Inflammatory cytokine release from PBMCs induced by PHA (flow cytometry CBA); conditions: 0.1 µM, PHA 1 µg/mL, 24 h
IL-10 = assay: as above; conditions: PBMCs, PHA 1 µg/mL, 24 h
TNF-α = assay: as above; conditions: 0.1 µM, PHA 1 µg/mL, 24 h
IL-2 = assay: as above; conditions: PBMCs, PHA 1 µg/mL, 24 h
Jurkat = assay: Tumor cell proliferation inhibition (cell viability assay); conditions: read-out: Inhibitory activity against tumor cells proliferation (IC50, nM) Jurkat, 96 hours
THP-1 = assay: as above; conditions: read-out: Inhibitory activity against tumor cells proliferation (IC50, nM) THP-1; THP-1 cells; 96 hours
[1] = test system: Human multiple myeloma cell (MM.1S); assay: as above; conditions: read-out: Inhibitory activity against tumor cells proliferation (IC50, nM) MM.1S; MM.1S cells; 96 hours
Vcap = assay: as above; conditions: read-out: Inhibitory activity against tumor cells proliferation (IC50, nM) Vcap, 96 hours
CCRF-CEM = assay: as above; conditions: read-out: Inhibitory activity against tumor cells proliferation (IC50, nM) CCRF-CEM, 96 hours
MM.1R = assay: as above; conditions: read-out: Inhibitory activity against tumor cells proliferation (IC50, nM) MM.1R; MM.1R cells; 96 hours
T47D = assay: as above; conditions: read-out: Inhibitory activity against tumor cells proliferation (IC50, nM) T47D, 96 hours
HEP3B2.1-7 = assay: as above; conditions: read-out: Inhibitory activity against tumor cells proliferation (IC50, nM) HEP3B2.1-7; HEP3B2.1-7 cells; 96 hours
Kasumi-1 = assay: as above; conditions: read-out: Inhibitory activity against tumor cells proliferation (IC50, nM) Kasumi-1; Kasumi-1 cells; 72 hours
IL-1β = assay: Inflammatory cytokine release from PBMCs induced by PHA (flow cytometry CBA); conditions: 0.1 µM, PHA 1 µg/mL, 24 h

Compound	substrate protein remaining % (IKZF3) (IKZF3)	substrate protein remaining % (WEE1) (WEE1)	substrate protein remaining % (IKZF2) (IKZF2)	substrate protein remaining % (GSPT1) (GSPT1)	substrate protein remaining % (IKZF 1) (IKZF1)	substrate protein remaining % (CK1a) (CK1α)	Inhibition Rate (%) IL-1α (IL-1α)	Inhibition Rate (%) TNF-α (TNF-α)	Inhibition Rate (%) IL-2 (IL-2; 0.1 µM)	IC50 (CRBN) [nM]	IC50 (Jurkat) [nM]	IC50 [1] [nM]	IC50 (Vcap) [nM]	IC50 (CCRF-CEM) [nM]	IC50 (MM.1R) [nM]	IC50 (HEP3B2.1-7) [nM]	IC50 (Kasumi-1) [nM]	also measured
O=C1CCC(N2Cc3cc(CCN4CCC(N5CCN(C(c6ccccc6)c6ccccn6)CC5)C(F)(F)C4)ccc3C2=O)C(=O)N1 (centres unmarked)	B (80%< substrate protein remaining %≤ 100%)	B (80%< substrate protein remaining %≤ 100%)	B (80%< substrate protein remaining %≤ 100%)	A (0% ≤ substrate protein remaining % ≤ 80%)	B (80%< substrate protein remaining %≤ 100%)	A (0% ≤ substrate protein remaining % ≤ 80%)	IV6 (10% < IV6 ≤ 20%)	IV8 (30% < IV8 ≤ 40%)	IV9 (40% < IV9 ≤ 50%)	–	–	–	–	–	–	–	–	Inhibition Rate (%) GM-CSF (GM-CSF; 0.1 µM): IV9 (40% < IV9 ≤ 50%); Inhibition Rate (%) GM-CSF (GM-CSF; 1 µM): IV9 (40% < IV9 ≤ 50%); Inhibition Rate (%) IL-5 (IL-5; 0.1 µM): IV10 (50% < IV 10 ≤ 60%); Inhibition Rate (%) IL-5 (IL-5; 1 µM): IV9 (40% < IV9 ≤ 50%); Inhibition Rate at 0.5 µM (%) (CRBN; CRBN binding, HTRF, compound at 0.5 µM): a7 (70% < a7 ≤80%); Inhibition Rate at 2 µM (%) (CRBN; CRBN binding, HTRF, compound at 2 µM): a8 (80% < a8 ≤100%); Inhibition Rate (%) IL-10 (IL-10; 0.1 µM): IV6 (10% < IV6 ≤ 20%); Inhibition Rate (%) IL-10 (IL-10; 1 µM): IV9 (40% < IV9 ≤ 50%)
O=C1CCC(N2Cc3cc(CN4CCC(N5CCN(C(c6ccccc6)c6ccccc6)CC5)C(F)(F)C4)c(F)cc3C2=O)C(=O)N1 (centres unmarked)	A (0% ≤ substrate protein remaining % ≤ 80%)	A (0% ≤ substrate protein remaining % ≤ 80%)	A (0% ≤ substrate protein remaining % ≤ 80%)	A (0% ≤ substrate protein remaining % ≤ 80%)	A (0% ≤ substrate protein remaining % ≤ 80%)	A (0% ≤ substrate protein remaining % ≤ 80%)	–	–	–	1500 to 1900	2 to 5	5 to 10	10 to 20	2 to 5	5 to 10	5 to 10	5 to 10	IC50 (THP-1): 50 to 100 nM; IC50 (T47D): 10 to 20 nM
O=C1CCC(N2Cc3cc(CN4CCC(N5CCN(C(c6ccccc6)c6ccccc6)CC5)C(F)(F)C4)ccc3C2=S)C(=O)N1 (centres unmarked)	–	–	–	–	–	–	IV8 (30% < IV8 ≤ 40%)	IV4 (-50% ≤ IV4 < 0%)	IV4 (-50% ≤ IV4 < 0%)	100 to 500	–	–	–	–	–	–	–	Inhibition Rate (%) IL-2 (IL-2; 1 µM): IV9 (40% < IV9 ≤ 50%); Inhibition Rate (%) IL-1β (IL-1β): IV9 (40% < IV9 ≤ 50%)
O=C1CCC(N2Cc3c(ccc(CN4CCC(N5CCN(C(c6ccccc6)c6ccccc6)CC5)C(F)(F)C4)c3F)C2=O)C(=O)N1 (centres unmarked)	A (0% ≤ substrate protein remaining % ≤ 80%)	A (0% ≤ substrate protein remaining % ≤ 80%)	A (0% ≤ substrate protein remaining % ≤ 80%)	A (0% ≤ substrate protein remaining % ≤ 80%)	A (0% ≤ substrate protein remaining % ≤ 80%)	A (0% ≤ substrate protein remaining % ≤ 80%)	–	–	–	1000 to 1500	50 to 100	20 to 50	100 to 200	20 to 50	20 to 50	20 to 50	200 to 500	–
